# Apparent affinities of Ab-14 variants for a coronavirus HR2 peptide

Binding partner: SARS-CoV-2 spike HR2 peptide, sequence PDVDLGDISGINAS.

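Phage display of a naive human antibody library on the peptide gave the parent. This is the validation round: designs drawn from the data on random variants, tested in the same kind of assay. Several design methods are mixed in this list. The scFvs were displayed on barcoded MATa yeast, the peptide on MATalpha yeast. After mating in shaken culture at 30 °C for 16 h, diploids were selected and their barcode pairs sequenced. Scores were corrected for input abundance and mapped to Kd with protein pairs of known affinity run in the same pool. Mating was done six times.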

Each scFv is VH, a 15-residue (Gly4Ser)3 linker, VL, as in the parent Ab-14, and differs from it in the CDRs of the heavy chain only.
VH: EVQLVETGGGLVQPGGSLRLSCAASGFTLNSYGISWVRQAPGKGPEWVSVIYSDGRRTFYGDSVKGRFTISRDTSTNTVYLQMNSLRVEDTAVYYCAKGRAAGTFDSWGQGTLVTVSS
VL: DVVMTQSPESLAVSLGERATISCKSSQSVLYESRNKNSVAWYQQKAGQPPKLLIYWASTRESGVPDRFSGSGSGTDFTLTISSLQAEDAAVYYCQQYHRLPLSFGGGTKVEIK

The parent's heavy chain CDRs are GFTLNSYGIS, VIYSDGRRTFYGDSVK, GRAAGTFDS; each variant's own CDRs replace them letter for letter. Values are log10 of the apparent Kd in nM; lower means stronger binding. The mean shown is taken over the replicates in which the pair was detected. Where no diploid with the target was found in any replicate, the entry reads "nd": below detection, most likely a poor binder, though not proof of it. The authors averaged sequences with at least three values out of six and counted those with two or fewer as poor binders. As a blank, each scFv also met three strains without target: over all heavy chain designs, 1% of these pairings were detected, typically at 2.08 and seldom below 0.84. Also given: how often the same scFv was detected with the empty control strains. A sequence measured in both rounds can read differently, since the two assays cover different ranges.

Result 2.86 (1 of 6 replicates; controls 1 of 18), variant GCTADSYGIS, VITSDGRRTFYGDSVK, DRAAGTALS.
Result 0.68 (6 of 6 replicates; controls 0 of 18), variant GFDLNSYGIS, VIYSDGRRTFYSDSVK, GKAAGTFDA.
Result 1.66 (6 of 6 replicates; controls 0 of 18), variant GFHLNDYGIS, VIYSDGRRTFYMDSVK, GRQAGTFDS.
Result 1.34 (6 of 6 replicates; controls 0 of 18), variant GFTLNDYGIS, VIYSDGRRTEYGDSVK, GRAAGTFDS.
Result nd (0 of 6 replicates; controls 0 of 18), variant GFTLNDYGIH, VIYSDGRRTFYGDSVK, GRAALTFIS.
Result 0.73 (4 of 6 replicates; controls 0 of 18), variant GVSLNSYGIS, VIYSDGRRTFYGDSVK, GIAAGTFDG.
Result 0.46 (6 of 6 replicates; controls 0 of 18), variant AFNLEDYGIS, VIYADGVRAMYVESVK, GGIAGTFDI.
Result 0.34 (5 of 6 replicates; controls 0 of 18), variant GFTLNDYGIS, VIYSDGRRTFYSDSVK, GRTAGTFDS.
Result nd (0 of 6 replicates; controls 0 of 18), variant GFTLNSYGIS, VIYSDGKRTFYGDAVK, GEAAGTFDT.
Result 1.36 (2 of 6 replicates; controls 1 of 18), variant YFTLNEYGIS, VIYSDGRRTFYSDSVK, GQAAGTFDK.
Result 0.63 (6 of 6 replicates; controls 0 of 18), variant GFQLNEYGIS, VIYSDGRRTFYQDSVK, GRHAGTFDS.
Result -0.10 (6 of 6 replicates; controls 0 of 18), variant GFSLNEYGIS, VIYSDGRRTFYGDKVK, GRAAGTFDS.
Result nd (0 of 6 replicates; controls 0 of 18), variant GFTLHSYGIS, VIYALGRRTFYGDSVK, GDAAGTNGS.
Result 1.20 (3 of 6 replicates; controls 0 of 18), variant GFTLNDYGIS, VIYSDGRRSQYIDSVK, GRAAGTFDS.
Result nd (0 of 6 replicates; controls 0 of 18), variant GFTLNSYGIS, VIYADGRMTFYGDSVK, GRAIGTNKS.
Result 0.76 (5 of 6 replicates; controls 0 of 18), variant GFELNSYGIS, VIYSDGRRTFYVDSVK, GHAAGTFDL.
Result -0.15 (6 of 6 replicates; controls 0 of 18), variant GFDLDEYGIS, VIYADGKRTFYADSVK, GETAGTFDV.
Result 0.73 (4 of 6 replicates; controls 0 of 18), variant GFWLNEYGIS, VIYSDGRRTFYGDSVK, GQTAGTFDS.
Result 1.10 (6 of 6 replicates; controls 0 of 18), variant GFDLNEYGIS, VIYADGVRTSYADSVK, GNNAGTFDM.
Result 0.64 (6 of 6 replicates; controls 0 of 18), variant GFTLNEYGIS, VIYSDGRRTFYMDSVK, GRIAGTFDS.
Result 0.54 (4 of 6 replicates; controls 0 of 18), variant GFDLNEYGIS, VIYADGVRTYYADSVK, GENAGTFDL.
Result nd (0 of 6 replicates; controls 0 of 18), variant GFTLNDYGIS, VIYSDGRRTQYIDSVK, GRAAGTFTS.
Result 0.93 (6 of 6 replicates; controls 0 of 18), variant GFSLNMYGIS, VIYSDGRRTFYGDSVK, GEAAGTFDS.
Result 0.35 (6 of 6 replicates; controls 0 of 18), variant GFQLNSYGIS, VIYSDGRRTFYADSVK, GQTAGTFDS.
Result -0.03 (6 of 6 replicates; controls 0 of 18), variant GFGLNSYGIS, VIYSDGRRTFYADSVK, GQTAGTFDS.
Result nd (0 of 6 replicates; controls 0 of 18), variant GFTLNSYGIS, VIYSDGKRTFYGDSVK, GRAAVTFDS.
Result 0.10 (6 of 6 replicates; controls 2 of 18), variant GKTLNSYGIS, VIYSDGRRTFYSDSVK, GRAGGTFDS.
Result 0.16 (6 of 6 replicates; controls 0 of 18), variant GFSLNEYGIS, VIYSDGRRTFYHDSVK, GRAAGTFDQ.
Result -0.21 (6 of 6 replicates; controls 2 of 18), variant GFDLNEYGIS, VIYADGKRTFYTDSVK, GEVAGTFDV.
Result nd (0 of 6 replicates; controls 0 of 18), variant GFKLNSYGIS, VIYSDGRRTAYGDSVK, GRAPGTMES.
Result 1.16 (6 of 6 replicates; controls 0 of 18), variant GFELNAYGIS, VIYSDGRRTFYGDSVK, GKEAGTFDS.
Result 2.82 (1 of 6 replicates; controls 0 of 18), variant GFTLNDYGIS, VIYSDGERTQYIDSVK, GRASGTFDS.
Result 1.89 (2 of 6 replicates; controls 0 of 18), variant GFTLNEYGIS, VIYSDGRRTFYMDSVK, GRYAGTFDS.
Result -0.49 (6 of 6 replicates; controls 0 of 18), variant GFDLNEYGIS, VIYADGMRTAYADSVK, GEQAGTFDI.

Again, the first 2 entries without any signal:

CDR-H1	CDR-H2	CDR-H3	mean, log10 nM	seen in	empty controls
GFTLNDYGIH	VIYSDGRRTFYGDSVK	GRAALTFIS	nd	0/6	0/18
GFTLNSYGIS	VIYSDGKRTFYGDAVK	GEAAGTFDT	nd	0/6	0/18

The measurements come from Li et al. 2023 (doi:10.1038/s41467-023-39022-2) through the FLAb antibody collection.